Values of other authors, collected in PMC7000712, “A kinetic method for measuring agonist efficacy and ligand bias using high resolution biosensors and a kinetic data analysis framework” (Scientific Reports, 2020).

System: dopamine D2 receptor
Design: method as in PMID 22025698, PMID 27805392, PMID 22845053, PMID 18455202, PMID 18768802
Conditions: cited from earlier work

## O=C1CCc2ccc(OCCCCN3CCN(c4cccc(Cl)c4Cl)CC3)cc2N1 [aripiprazole]
  arrestin bias (in words): arrestin-biased ligand
